Experimental data as given in patent US9527840B2, “Substituted-quinoxaline-type piperidine compounds and the uses thereof” (priority 2007, dated 2016).

How the values were obtained:
[1] = biological target: human opioid receptor-like (ORL-1) (Homo sapiens, UniProt P41146); test: In vitro ORL-1 receptor functional assay ([35S]GTPγS binding); format: biochemical; details: mean ± SEM; for EC50: read-out: ORL-1 GTPγS EC50
kappa opioid receptor = kappa opioid receptor (Homo sapiens, UniProt P41145); test: In vitro kappa-opioid receptor functional assay ([35S]GTPγS); format: biochemical; details: mean ± SEM; for EC50: read-out: Kappa opioid receptor GTPγS EC50
[2] = biological target: recombinant delta opioid receptor (Homo sapiens, UniProt P41143); test: In vitro delta-opioid receptor binding assay ([3H]-Naltrindole displacement)
μ-opioid receptor = μ-opioid receptor (Homo sapiens, UniProt P35372); test: In vitro mu-opioid receptor functional assay ([35S]GTPγS); format: biochemical; details: mean ± SEM; for EC50: read-out: Mu opioid receptor GTPγS EC50

Structure (SMILES) | ORL-1 GTPγS Emax [1] | EC50 [1] | Kappa opioid receptor GTPγS Emax (kappa opioid receptor) | EC50 (kappa opioid receptor) | Ki [2] | Mu opioid receptor GTPγS Emax (μ-opioid receptor) | EC50 (μ-opioid receptor)
COc1ccc(NC(=O)c2nc3ccccc3n([C@@H]3C[C@H]4CC[C@@H](C3)N4C3CCCCCCC3)c2=O)cn1 | 110.5 ± 6.5% | 2.35 µM | 9.0 ± 1.2% | 3.78 µM | – | – | –
O=C(O)c1nc2ccccc2n([C@H]2C[C@H]3CCC[C@@H](C2)N3C2C3CCCC2CCC3)c1=O (stereo partly drawn) | 97.5 ± 1.3% | 0.106 µM | – | – | – | – | –
O=C(O)[C@@H](CO)Nc1nc2ccccc2n([C@H]2C[C@H]3CC[C@@H](C2)N3C2CCCCCCC2)c1=O | 35.3 ± 2.3% | 0.0436 µM | 18 ± 2% | – | 57.7 µM | 93% | 1.06 µM
CC(=O)NC1(C(=O)O)CCN(c2nc3ccccc3n([C@H]3C[C@H]4CC[C@@H](C3)N4C3CCCCCCC3)c2=O)CC1 | 46.7 ± 1.9% | 1.76 µM | 0% | > 20 µM | > 20 µM | – | –
O=C(O)Cc1csc(NC(=O)c2nc3ccccc3n([C@H]3C[C@H]4CC[C@@H](C3)N4C3CCCCCCC3)c2=O)n1 | 29 ± 3% | 0.503 µM | – | – | – | – | –
O=C(O)c1nc2ccccc2n([C@H]2C[C@H]3CCC[C@@H](C2)N3C2CCCCCCCC2)c1=O | 96.5 ± 1.9% | 0.0111 µM | 12.7% | 1.77 µM | – | 17.3 ± 2.9% | 3.39 µM
O=C(O)CNC(=O)CNc1nc2ccccc2n([C@H]2C[C@H]3CC[C@@H](C2)N3C2CCCCCCC2)c1=O | 67 ± 1.5% | 0.956 µM | – | – | – | – | –
O=C(O)c1nc2ccccc2n(C2CC3CCC(C2)N3C23CC4CC(CC(C4)C2)C3)c1=O (stereo not drawn) | 59.7 ± 0.3% | 0.0406 µM | – | – | – | 23 ± 1% | –
CCOC(=O)c1nc2ccccc2n([C@H]2C[C@H]3CC[C@@H](C2)N3C2CCCCCCC2)c1=O | 58.3 ± 1.6% | 0.21 µM | 1.0 ± 2.0% | – | – | 3.0 ± 0.4% | 0.643 µM
O=C(Nc1ccc(=O)[nH]c1)c1nc2ccccc2n([C@H]2C[C@H]3CC[C@@H](C2)N3C2CCCCCCC2)c1=O | 87.3 ± 3.9% | 0.0676 µM | 8.3 ± 0.9% | 1.36 µM | – | 8.7 ± 0.3% | 5.11 µM
O=C(O)C1CCCN1C(=O)CNc1nc2ccccc2n([C@H]2C[C@H]3CC[C@@H](C2)N3C2CCCCCCC2)c1=O (stereo partly drawn) | 73.3 ± 1.7% | 3.86 µM | 6.3% | 4.59 µM | > 20 µM | – | –
O=C(NC(Cc1ccccc1)C(=O)O)c1nc2ccccc2n([C@H]2C[C@H]3CC[C@@H](C2)N3C2CCCCCCC2)c1=O (stereo partly drawn) | 80.0 ± 1.7% | 0.199 µM | 13.0 ± 2.3% | 3.73 µM | – | 8.9 ± 0.5% | –
O=C(O)C1CCN(CCNc2nc3ccccc3n([C@H]3C[C@H]4CC[C@@H](C3)N4C3CCCCCCC3)c2=O)CC1 | 38% | 0.337 µM | 9% | 2.26 µM | > 20 µM | 4.2% | 1.08 µM
O=C(O)C1(O)CCN(c2nc3ccccc3n([C@H]3C[C@H]4CC[C@@H](C3)N4C3CCCCCCC3)c2=O)CC1 | 36.5% | 0.104 µM | 3.3% | 3.34 µM | – | 11.5% | 4.94 µM
O=C(O)CC1CCN(c2nc3ccccc3n([C@H]3C[C@H]4CC[C@@H](C3)N4C3CCCCCCC3)c2=O)C1 (stereo partly drawn) | 73 ± 2% | 0.924 µM | – | – | – | – | –
CC(C)(Nc1nc2ccccc2n([C@H]2C[C@H]3CC[C@@H](C2)N3C2CCCCCCC2)c1=O)C(=O)O | – | – | – | – | > 20 µM | – | –
O=C(O)c1nc2ccccc2n([C@H]2C[C@H]3COC[C@@H](C2)N3C2CCCCCCC2)c1=O | 95.8 ± 3.6% | 4.25 µM | – | – | – | – | –
O=C(O)CC1CCN(c2nc3ccccc3n([C@H]3C[C@H]4CC[C@@H](C3)N4C3CCCCCCC3)c2=O)CC1 | 50.3 ± 4.4% | – | – | – | – | – | –
NC1(C(=O)O)CCN(c2nc3ccccc3n([C@H]3C[C@H]4CC[C@@H](C3)N4C3CCCCCCC3)c2=O)CC1 | 34.5 ± 1.6% | 0.0944 µM | 13 ± 2.1% | 4.73 µM | > 20 µM | – | –
O=C(NC(Cc1c[nH]cn1)C(=O)O)c1nc2ccccc2n([C@H]2C[C@H]3CC[C@@H](C2)N3C2CCCCCCC2)c1=O (stereo partly drawn) | 53.3 ± 0.6% | 0.361 µM | 63 ± 11% | 46.5 µM | – | 20.0 ± 0.6% | 36.4 µM
O=C(O)CN(CCNc1nc2ccccc2n([C@H]2C[C@H]3CC[C@@H](C2)N3C2CCCCCCC2)c1=O)CC(=O)O | 101.3% | 0.0536 µM | – | – | > 20 µM | – | –
